# Values quoted from earlier work, collected in patent US8815249B2 (priority 1999, dated 2014).
# Conditions: mouse, in vivo; cited from earlier work
sequence,measurement,value
HCLGKWLGHPDKFVGI [PL139-154],mice with severe clinical and histological EAE,3 of 20
